For 28 compounds, IC50 results are on record in patent EP4755881A1 (Wuhan Createrna Science and Technology Co., Ltd., priority 2023, dated 2025).

Protein sequences, listed by entry. Tags and fused reporters are not part of them.
UniProt Q92633, whole entry: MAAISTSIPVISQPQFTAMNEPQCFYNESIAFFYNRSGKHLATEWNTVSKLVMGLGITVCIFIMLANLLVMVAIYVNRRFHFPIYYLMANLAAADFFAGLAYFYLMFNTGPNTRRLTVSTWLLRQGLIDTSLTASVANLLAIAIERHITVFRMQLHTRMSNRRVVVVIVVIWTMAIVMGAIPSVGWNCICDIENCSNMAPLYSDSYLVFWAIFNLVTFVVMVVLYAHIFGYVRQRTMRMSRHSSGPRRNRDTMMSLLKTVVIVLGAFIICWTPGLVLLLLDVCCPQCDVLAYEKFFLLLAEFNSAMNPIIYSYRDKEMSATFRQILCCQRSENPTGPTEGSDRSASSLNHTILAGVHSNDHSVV

pIC50: −log10 of the molar value.

The first test has as its target hLPAR1 (human lysophosphatidic acid receptor 1, Accession No.: NM_001401.4) (Homo sapiens, UniProt Q92633).
Assay: not given
The conditions noted are these: read-out: LPAR1 inhibitory activity IC50; Table 1; FLIPR method, CHO-K1 cells overexpressing hLPAR1.
As for `Cc1nc(-c2nnn(C)c2CNc2nccc(CCC(C)(F)F)n2)ccc1C#CC1(CC(=O)O)CC1`, the pIC50 (commonly the IC50 on a negative log10 scale, so that one unit is a factor of ten) was 7.15.

The same test, now with this note: read-out: LPAR1 inhibitory activity IC50; Table 1; FLIPR method, CHO-K1 cells overexpressing hLPAR1; tested form: free acid.
On to `CCC[C@@H](C)OC(=O)Nc1c(-c2ccc(C#C[C@@H]3CC[C@H]3C(=O)O)c(C)n2)nnn1C`, for which the pIC50 is 7.46.

Turning to `Cc1noc(-c2ccc(C#CC3(OS(=O)(=O)O)CC3)c(F)c2)c1NC(=O)O[C@H](C)c1ccccc1Cl`, the pIC50 is 10.00.

As for `CCC[C@@H](C)OC(=O)Nc1c(-c2ccc(C#C[C@H]3CC[C@@H]3C(=O)O)c(C)n2)nnn1C`, the pIC50 was 7.56.

`Cc1nc(-c2nnn(C)c2COC(=O)N(C)CC23CC(C2)C3)ccc1C#CC1(CC(=O)O)CC1`: the pIC50 was 7.11.

As for `CCC(F)(F)C[C@@H](C)OC(=O)Nc1c(-c2ccc(C#C[C@@H]3CC[C@H]3C(=O)O)c(C)n2)nnn1C`, the pIC50 was 7.41.

`Cc1nc(-c2nnn(C)c2NC(=O)O[C@H](C)C23CC(C2)C3)ccc1C#C[C@H]1CC(F)(F)C[C@@H]1C(=O)O`: the pIC50 is 7.83.

`Cc1nc(-c2nnn(C)c2NC(=O)O[C@H](C)C23CC(C2)C3)ccc1C#C[C@@H]1CC(F)(F)C[C@H]1C(=O)O`: the pIC50 is 8.09.

In the case of `Cc1noc(-c2ccc(C#CC3(N(C)S(=O)(=O)O)CC3)c(F)c2)c1NC(=O)O[C@H](C)c1ccccc1Cl`, the pIC50 is 7.87.

The test is the same for the next values; noted with them: read-out: LPAR1 inhibitory activity IC50; Table 1; FLIPR method, CHO-K1 cells overexpressing hLPAR1; tested form: free acid; single separated trans enanti.
In the case of `CCCCN(C)C(=O)OCc1c(-c2ccc(C#C[C@@H]3C[C@H]3C(=O)O)c(C)n2)nnn1C` (relative stereo), the pIC50 is 7.02.

The test is the same for the next values; noted with them: read-out: LPAR1 inhibitory activity IC50; Table 1; FLIPR method, CHO-K1 cells overexpressing hLPAR1; tested form: free acid; single separated trans isomer.
Regarding `CCC[C@@H](C)OC(=O)Nc1c(-c2ccc(C#C[C@@H]3CC[C@H]3C(=O)O)c(F)n2)nnn1C`, the pIC50 was 7.43.

For the compound `CCC[C@@H](C)OC(=O)Nc1c(-c2ccc(C#C[C@H]3CC[C@@H]3C(=O)O)c(F)n2)nnn1C`, the pIC50 is 7.68.

The target in a further test is LPAR1 receptor (Homo sapiens, UniProt Q92633). The test can be described thus: LPAR1 in vitro biological activity evaluation 2: HTRF cAMP kit (LANCE Ultra cAMP Kit) assay in CHO stable transfected cell line expressing the LPAR1 receptor. It is filed as cell-based. To be noted: read-out: LPAR1 inhibitory activity IC50, Table 2. On the technique in general: Time-resolved FRET reads energy transfer from a long-lived donor to a nearby acceptor.
Regarding `CCC(F)(F)[C@@H](C)OC(=O)Nc1c(C)noc1-c1ccc(C#CC2(CC(=O)OC)CC(OC)C2)c(F)n1` (stereo partly shown), the pIC50 is 7.13.

Still in this test, the particulars now being: read-out: LPAR1 inhibitory activity IC50, Table 2, tested form: free acid.
With `Cc1onc(-c2ccc(C#CC3(CC(=O)O)CC3)c(C(F)(F)F)n2)c1NC(=O)O[C@H](C)CC(C)(F)F`, the pIC50 is 7.33.

As to `CCc1nc(-c2onc(C)c2NC(=O)O[C@H](C)CC(C)(F)F)ccc1C#CC1(CC(=O)O)CC1`, the pIC50 was 7.47.

Regarding `CCC[C@@H](C)OC(=O)Nc1c(-c2ccc(C#C[C@H]3CC(F)(F)C[C@@H]3C(=O)O)c(C)n2)nnn1C`, the pIC50 was 7.26.

With `CCc1nc(-c2noc(C)c2NC(=O)O[C@H](C)CC(C)(F)F)ccc1C#CC1(CC(=O)O)CC1`, the pIC50 was 7.34.

For `Cc1noc(-c2ccc(C#CC3(CC(=O)O)CC3)c(Cl)n2)c1NC(=O)O[C@H](C)CC(C)(F)F`, the negative-log IC50 (pIC50) was 7.22.

As for `Cc1noc(-c2ccc(C#CC3(CC(=O)O)CC3)c(C(F)(F)F)n2)c1NC(=O)O[C@H](C)CC(C)(F)F`, the pIC50 was 7.22.

For the compound `CCc1nc(-c2onc(C)c2NC(=O)O[C@H](C)C(F)(F)CC)ccc1C#CC1(CC(=O)O)CC1`, the pIC50 is 6.96.

Take `CCc1nc(-c2noc(C)c2NC(=O)O[C@H](C)C(F)(F)CC)ccc1C#CC1(CC(=O)O)CC1`: the pIC50 was 7.34.

On to `CCC[C@@H](C)OC(=O)Nc1c(-c2ccc(C#C[C@@H]3CC(F)(F)C[C@H]3C(=O)O)c(C)n2)nnn1C` [compound 304], for which the pIC50 was 6.89.

Staying with this test, now noted: read-out: LPAR1 inhibitory activity IC50, Table 2, tested form: free acid, single separated cyclobutane.
Regarding `CCC(F)(F)[C@@H](C)OC(=O)Nc1c(-c2ccc(C#CC3(CC(=O)O)CC(OC)C3)c(C(F)(F)F)n2)nnn1C` (single isomer, unassigned) [463-A], the pIC50 is 7.38.

Consider `CCC(F)(F)[C@@H](C)OC(=O)Nc1c(-c2ccc(C#CC3(CC(=O)O)CC(OC)C3)c(C(F)(F)F)n2)nnn1C` (single isomer, unassigned) [463-B], for which the pIC50 is 7.45.

For the compound `CCc1nc(-c2nnn(C)c2NC(=O)O[C@H](C)C(F)(F)CC)ccc1C#CC1(CC(=O)O)CC(OC)C1` (single isomer, unassigned) [462-A], the pIC50 was 7.45.

`CCc1nc(-c2nnn(C)c2NC(=O)O[C@H](C)C(F)(F)CC)ccc1C#CC1(CC(=O)O)CC(OC)C1` (single isomer, unassigned) [462-B]: the pIC50 was 7.29.

Staying with this test, now noted: read-out: LPAR1 inhibitory activity IC50, Table 2, tested form: free acid, single separated trans isomer.
As for `Cc1nc(-c2onc(C)c2NC(=O)O[C@H](C)CC(C)(F)F)ccc1C#C[C@H]1CC[C@@H]1C(=O)O`, the pIC50 was 7.17.

For the compound `Cc1nc(-c2onc(C)c2NC(=O)O[C@H](C)CC(C)(F)F)ccc1C#C[C@@H]1CC[C@H]1C(=O)O` [compound 340], the pIC50 was 7.17.
